For the assay, the system named is human umbilical vein endothelial cells (HUVECs). Conditions: for IC50: 48 h; for Inhibition of bFGF-induced proliferation of HUVECs (in words): bFGF-stimulated HUVECs, FIG. 2 (peptides), FIG. 5 (mabs).

Molecules are shown by their SMILES.

For orientation: IC50 means the concentration needed to halve the response being measured. A higher IC50 goes with lower potency.

On to `CC[C@H](C)[C@H](NC(=O)[C@H](C)NC(=O)[C@@H](NC(=O)[C@@H](NC(=O)[C@H](CC(=O)O)NC(=O)[C@H](CCC(N)=O)NC(=O)[C@H](CC(C)C)NC(=O)[C@@H](N)CO)[C@@H](C)CC)[C@@H](C)CC)C(=O)N[C@@H](CC(C)C)C(=O)NCC(=O)N[C@@H](CCSC)C(=O)N[C@@H](CC(=O)O)C(=O)N[C@@H](CCC(=O)O)C(=O)N[C@@H](CC(C)C)C(=O)N[C@@H](CO)C(=O)N[C@@H](CCC(=O)O)C(=O)N[C@@H](CCC(=O)O)C(=O)N[C@@H](CC(=O)O)C(=O)N[C@@H](CCCCN)C(=O)N[C@@H](CC(C)C)C(=O)N[C@H](C(=O)N[C@@H](CS)C(=O)O)[C@@H](C)O` [EP03], for which the IC50 was 245 µM and the “Inhibition of bFGF-induced proliferation of HUVECs (in words)” value (from here on “Inhibition”) is on record as “inhibited bFGF-induced HUVEC proliferation”.

In the case of `CC[C@H](C)[C@H](NC(=O)[C@H](CCCCN)NC(=O)[C@H](CCCNC(=N)N)NC(=O)[C@H](C)NC(=O)[C@H](CCCNC(=N)N)NC(=O)[C@H](CO)NC(=O)[C@@H](NC(=O)[C@@H](NC(=O)[C@H](CC(C)C)NC(=O)[C@H](CCCCN)NC(=O)[C@H](CC(=O)O)NC(=O)[C@H](CCC(=O)O)NC(=O)[C@H](CCC(=O)O)NC(=O)[C@H](CO)NC(=O)[C@H](CC(C)C)NC(=O)[C@H](CCC(=O)O)NC(=O)[C@H](CC(=O)O)NC(=O)[C@H](CCSC)NC(=O)CN)[C@@H](C)O)C(C)C)C(=O)N[C@@H](CCC(N)=O)C(=O)N[C@@H](CCCNC(=N)N)C(=O)N[C@@H](Cc1ccccc1)C(=O)O` [EP02], the IC50 came out at 235 µM and the “Inhibition” value was “inhibited bFGF-induced HUVEC proliferation”.

As for `CC(C)C[C@H](NC(=O)[C@H](C)NC(=O)[C@H](C)NC(=O)[C@H](CC(C)C)NC(=O)[C@H](CCC(N)=O)NC(=O)[C@H](CCC(=O)O)NC(=O)[C@H](CCCNC(=N)N)NC(=O)[C@H](CO)NC(=O)[C@H](CCC(N)=O)NC(=O)[C@H](C)NC(=O)[C@H](CCCNC(=N)N)NC(=O)[C@H](Cc1ccccc1)NC(=O)[C@H](Cc1ccc(O)cc1)NC(=O)[C@H](CCCNC(=N)N)NC(=O)[C@H](CCC(=O)O)NC(=O)[C@H](CCC(=O)O)NC(=O)[C@H](CCC(=O)O)NC(=O)[C@H](C)NC(=O)[C@H](CCC(N)=O)NC(=O)[C@H](CCC(=O)O)NC(=O)[C@H](CCCNC(=N)N)NC(=O)[C@H](CCCCN)NC(=O)CNC(=O)[C@@H](N)Cc1ccccc1)C(=O)O` [EP01], the IC50 is 210 µM and the “Inhibition” value is given as “inhibited bFGF-induced HUVEC proliferation”.

For the origin of these results see US7381799B2, “Compositions and methods for inhibiting angiogenesis” (Ergon Pharmaceuticals LLC, priority 2000, dated 2008).
